Results reported in US20070105759A1 (priority 2003, published 2007).

Amino acid sequences for entries named in this document (tags omitted).
UniProt P32245, whole entry: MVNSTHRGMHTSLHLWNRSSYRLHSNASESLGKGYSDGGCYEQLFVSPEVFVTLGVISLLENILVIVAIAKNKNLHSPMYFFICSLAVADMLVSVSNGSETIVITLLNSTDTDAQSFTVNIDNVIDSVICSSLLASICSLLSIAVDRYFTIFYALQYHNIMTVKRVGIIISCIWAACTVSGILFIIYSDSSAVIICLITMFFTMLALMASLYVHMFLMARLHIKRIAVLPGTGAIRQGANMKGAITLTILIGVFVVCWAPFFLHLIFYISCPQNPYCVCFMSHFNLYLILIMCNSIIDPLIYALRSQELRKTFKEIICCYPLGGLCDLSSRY

The compounds below were run against MC4 (Homo sapiens, UniProt P32245). Details: read-out: MC4 Ki.

Structure (SMILES) | Ki [pM]
CC(=O)N[C@H]1CCSSC[C@@H](C(N)=O)NC(=O)[C@H](Cc2c[nH]c3ccccc23)NC(=O)[C@H](CCCNC(=N)N)NC(=O)[C@@H](Cc2ccc(F)cc2)NC(=O)[C@H](Cc2c[nH]cn2)NC1=O [Compound No. 139, Ac-cyclo[hCys-His-(4-F-D-Phe)-Arg-Trp-Cys]-NH2] | 380
CC(=O)N[C@H]1CCSSC[C@@H](C(N)=O)NC(=O)[C@H](Cc2c[nH]c3ccccc23)NC(=O)[C@H](CCCNC(=N)N)NC(=O)[C@@H](Cc2ccc(Cl)cc2)NC(=O)[C@H](Cc2c[nH]cn2)NC1=O [Compound No. 140, Ac-cyclo[hCys-His-(4-Cl-D-Phe)-Arg-Trp-Cys]-NH2] | 200
N=C(N)NCCC[C@@H]1NC(=O)[C@@H](Cc2ccccc2)NC(=O)[C@H](Cc2c[nH]cn2)NC(=O)[C@@H](NC(=O)C2CC2)CCSSC[C@@H](C(N)=O)NC(=O)[C@H](Cc2c[nH]c3ccccc23)NC1=O [Compound No. 141, N-cyclopropanecarbonyl-cyclo[hCys-His-D-Phe-Arg-Trp-Cys]-NH2] | 190
N=C(N)NCCC[C@@H]1NC(=O)[C@@H](Cc2ccccc2)NC(=O)[C@H](Cc2c[nH]cn2)NC(=O)[C@@H](NC(=O)C2CCCC2)CCSSC[C@@H](C(N)=O)NC(=O)[C@H](Cc2c[nH]c3ccccc23)NC1=O [Compound No. 143, N-cyclopentanecarbonyl-cyclo[hCys-His-D-Phe-Arg-Trp-Cys]-NH2] | 80
N=C(N)NCCC[C@@H]1NC(=O)[C@@H](Cc2ccccc2)NC(=O)[C@H](Cc2c[nH]cn2)NC(=O)[C@@H](NC(=O)C2CCCCC2)CCSSC[C@@H](C(N)=O)NC(=O)[C@H](Cc2c[nH]c3ccccc23)NC1=O [Compound No. 144, N-cyclohexanecarbonyl-cyclo[hCys-His-D-Phe-Arg-Trp-Cys]-NH2] | 300
CCCCCC(=O)N[C@H]1CCSSC[C@@H](C(N)=O)NC(=O)[C@H](Cc2c[nH]c3ccccc23)NC(=O)[C@H](CCCNC(=N)N)NC(=O)[C@@H](Cc2ccccc2)NC(=O)[C@H](Cc2c[nH]cn2)NC1=O [Compound No. 145, N-hexanoyl-cyclo[hCys-His-D-Phe-Arg-Trp-Cys]-NH2] | 730
N=C(N)NCCC[C@@H]1NC(=O)[C@@H](Cc2ccccc2)NC(=O)[C@H](Cc2c[nH]cn2)NC(=O)[C@@H](NC(=O)CCCc2ccccc2)CCSSC[C@@H](C(N)=O)NC(=O)[C@H](Cc2c[nH]c3ccccc23)NC1=O [Compound No. 147, 4-phenylbutyryl-cyclo[hCys-His-D-Phe-Arg-Trp-Cys]-NH2] | 70
N=C(N)NCCC[C@@H]1NC(=O)[C@@H](Cc2ccccc2)NC(=O)[C@H](Cc2c[nH]cn2)NC(=O)[C@@H](NC(=O)CCNC(=N)N)CCSSC[C@@H](C(N)=O)NC(=O)[C@H](Cc2c[nH]c3ccccc23)NC1=O [Compound No. 148, 3-guanidinopropionyl-cyclo[hCys-His-D-Phe-Arg-Trp-Cys]-NH2] | 100
N=C(N)NCCCCC(=O)N[C@H]1CCSSC[C@@H](C(N)=O)NC(=O)[C@H](Cc2c[nH]c3ccccc23)NC(=O)[C@H](CCCNC(=N)N)NC(=O)[C@@H](Cc2ccccc2)NC(=O)[C@H](Cc2c[nH]cn2)NC1=O [Compound No. 149, 5-guanidinovaleryl-cyclo[hCys-His-D-Phe-Arg-Trp-Cys]-NH2] | 70
N=C(N)NCCC[C@@H]1NC(=O)[C@@H](Cc2ccccc2)NC(=O)[C@H](Cc2c[nH]cn2)NC(=O)[C@@H](NS(=O)(=O)c2ccccc2)CCSSC[C@@H](C(N)=O)NC(=O)[C@H](Cc2c[nH]c3ccccc23)NC1=O [Compound No. 150, N-phenylsulfonyl-cyclo[hCys-His-D-Phe-Arg-Trp-Cys]-NH2] | 2350
N=C(N)NCCC[C@@H]1NC(=O)[C@@H](Cc2ccccc2)NC(=O)[C@H](Cc2c[nH]cn2)NC(=O)[C@@H](NS(=O)(=O)c2ccc3ccccc3c2)CCSSC[C@@H](C(N)=O)NC(=O)[C@H](Cc2c[nH]c3ccccc23)NC1=O [Compound No. 151, N-(2-naphthalenesulfonyl)-cyclo[hCys-His-D-Phe-Arg-Trp-Cys]-NH2] | 4350
N=C(N)NCCC[C@@H]1NC(=O)[C@@H](Cc2ccccc2)NC(=O)[C@H](Cc2c[nH]cn2)NC(=O)[C@@H](NC(=O)CCC(=O)NS(=O)(=O)c2ccccc2)CCSSC[C@@H](C(N)=O)NC(=O)[C@H](Cc2c[nH]c3ccccc23)NC1=O [Compound No. 152, N-(4-phenylsulfonamido-4-oxo-butyryl)-cyclo[hCys-His-D-Phe-Arg-Trp-Cys]-NH2] | 1770
N=C(N)NCCC[C@@H]1NC(=O)[C@@H](Cc2ccccc2)NC(=O)[C@H](Cc2c[nH]cn2)NC(=O)[C@@H](NC(=O)[C@@H](N)CCCNC(=N)N)CCSSC[C@@H](C(N)=O)NC(=O)[C@H](Cc2c[nH]c3ccccc23)NC1=O [Compound No. 153, Arg-cyclo[hCys-His-D-Phe-Arg-Trp-Cys]-NH2] | 100
N=C(N)NCCC[C@@H](N)C(=O)N[C@H]1CCSSC[C@@H](C(N)=O)NC(=O)[C@H](Cc2c[nH]c3ccccc23)NC(=O)[C@H](CCCNC(=N)N)NC(=O)[C@@H](Cc2ccccc2)NC(=O)[C@H](Cc2c[nH]cn2)NC1=O [Compound No. 154, D-Arg-cyclo[hCys-His-D-Phe-Arg-Trp-Cys]-NH2] | 210
N=C(N)NCCC[C@@H]1NC(=O)[C@@H](Cc2ccccc2)NC(=O)[C@H](Cc2c[nH]cn2)NC(=O)[C@@H](NC(=O)[C@@H](N)CCCNC(=N)N)CCSSC[C@@H](C(=O)O)NC(=O)[C@H](Cc2c[nH]c3ccccc23)NC1=O [Compound No. 155, Arg-cyclo[hCys-His-D-Phe-Arg-Trp-Cys]-OH] | 680
Cn1cnc(C[C@@H]2NC(=O)[C@@H](NC(=O)[C@@H](N)CCCNC(=N)N)CCSSC[C@@H](C(N)=O)NC(=O)[C@H](Cc3c[nH]c4ccccc34)NC(=O)[C@H](CCCNC(=N)N)NC(=O)[C@@H](Cc3ccccc3)NC2=O)c1 [Compound No. 156, Arg-cyclo[hCys-(1-Me-His)-D-Phe-Arg-Trp-Cys]-NH2] | 1310
Cn1cnc(C[C@H]2NC(=O)[C@@H](NC(=O)[C@@H](N)CCCNC(=N)N)CCSSC[C@@H](C(N)=O)NC(=O)[C@H](Cc3c[nH]c4ccccc34)NC(=O)[C@H](CCCNC(=N)N)NC(=O)[C@@H](Cc3ccccc3)NC2=O)c1 [Compound No. 157, Arg-cyclo[hCys-(1-Me-D-His)-D-Phe-Arg-Trp-Cys]-NH2] | 28400
CC(=O)N[C@@H](CCCNC(=N)N)C(=O)N[C@H]1CCSSC[C@@H](C(N)=O)NC(=O)[C@H](Cc2c[nH]c3ccccc23)NC(=O)[C@H](CCCNC(=N)N)NC(=O)[C@@H](Cc2ccccc2)NC(=O)[C@H](Cc2c[nH]cn2)NC1=O [Compound No. 158, Ac-Arg-cyclo[hCys-His-D-Phe-Arg-Trp-Cys]-NH2] | 80
CC(=O)N[C@@H](CCCNC(=N)N)C(=O)N[C@H]1CCSSC[C@@H](C(=O)O)NC(=O)[C@H](Cc2c[nH]c3ccccc23)NC(=O)[C@H](CCCNC(=N)N)NC(=O)[C@@H](Cc2ccccc2)NC(=O)[C@H](Cc2c[nH]cn2)NC1=O [Compound No. 159, Ac-Arg-cyclo[hCys-His-D-Phe-Arg-Trp-Cys]-OH] | 740
CCCC[C@H](NC(C)=O)C(=O)N[C@H]1CCSSC[C@@H](C(N)=O)NC(=O)[C@H](Cc2c[nH]c3ccccc23)NC(=O)[C@H](CCCNC(=N)N)NC(=O)[C@@H](Cc2ccccc2)NC(=O)[C@H](Cc2c[nH]cn2)NC1=O [Compound No. 160, Ac-nLeu-cyclo[hCys-His-D-Phe-Arg-Trp-Cys]-NH2] | 50
